Source: paper PMC8294567, “Associations between plasma nucleoside reverse transcriptase inhibitors concentrations and cognitive function in people with HIV” (PLoS ONE, 2021)

Details: human, in vivo
Protocol: NRTI concentrations were measured by a validated method on ultra-performance liquid chromatography (ACQUITY, Waters) in plasma samples collected at study baseline. Briefly, 200 μL of plasma was subjected to solid phase extraction (MCX cartridge, Waters) and the elutants were dried under nitrogen stream before being re-constituted in 50 μL of water. The NRTI drugs were separated using a C18 BEH column (1.7 μm, 2.1 mm x 100 mm, Waters). For each of the four NRTIs, population PK models were determined using nonlinear mixed effects (NONMEM v.7.3) using the $PRIOR subroutine to stabilise the models and aid partition of inter-individual and residual variabilities. The impact of covariates on antiretroviral apparent oral clearance was evaluated. […] Model fit was assessed by statistical and graphical methods. […]
Continuous variables, including PK parameters and cognitive z-scores, were summarized using the median and the interquartile range (IQR); categorical variables were described using frequencies and percentages. Associations between NRTI PK parameters and cognitive z-scores were assessed using a series of rank regression models, one for each combination of cognitive domain/global score, NRTI and PK parameter (7x4x3 models). […]

Nc1nc(=O)n([C@@H]2CS[C@H](CO)O2)cc1F [FTC, emtricitabine]
Eta^2, eGFR vs AUC0-24: 0.136
